Laboratory results published in patent publication US11396531B2, “Antimicrobial peptides comprising epsilon lysine residues” (priority 2016, dated 2022).
≈ marks a conversion by molar mass, not a printed value. Like-named read-outs stand apart in the source and are kept apart here.

Legend:
[1] = system: human primary blood T-cell lymphocytes (PBTL); experiment: Cytokine determination by ELISA (immunogenicity); format: cell-based; settings: 62.5 and 125 μg/ml, 24 h
Experimental: The cells were exposed to peptides (62.5 and 125 μg/ml) and the amounts of Interleukins-2, -4 and 5 (IL-2, IL-4 and IL-5) and Interferon γ (IFNγ) were quantitatively determined by Enzyme-linked immunosorbent assay (ELISA). Mitogenic plant lectin phytohaemagglutinin (PHA) was used as a positive controls.

C. albicans = settings: for MIC: C. albicans (n = 5), Table 5; for MIC against C. albicans (n = 5): Table 4, range over 5 strains
In short: (§1)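 CLSI broth microdilution (M100-S18) with polymers at 1–512 μg/ml mixed with an equal volume of inoculum prepared at 0.5 McFarland, final 10^5 CFU/ml. Bacteria were grown in Mueller-Hinton broth and yeasts in Sabouraud dextrose broth, shaken in a closed incubator. Growth was read at 600 nm; duplicate determinations.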

S. epidermidis 12228 = settings: S. epidermidis 12228, Table 5
B. subtilis ATCC 6633 = settings: B. subtilis ATCC 6633, Table 5
C. tropicalis = C. tropicalis (n = 9), Table 5
In short: as §1

[2] = system: Vancomycin-resistant Enterococcus (VRE); settings: VRE (n = 21 strains), Table 5; for MIC90: 90% of strains susceptible; for MIC: range
In short: as §1

B. cereus ATCC 11778 = settings: B. cereus ATCC 11778, Table 5
In short: as §1

E. cloacae complex = system: E. cloacae complex
In short: as §1

C. parapsilosis = settings: C. parpsilosis (n = 9), Table 5
In short: as §1

[3] = Calcein dye leakage from microbial model LUVs; settings: microbial model membrane
Experimental: (§2) To obtain an insight into the mechanism of membrane discrimination, large unilamellar vesicles (LUVs) which mimic the cytoplasmic membrane of mammalian (PC/Cholesterol) and microbial (PE:PG) cells were used. […] More dramatic results were observed when the experiments were carried out on PC/Cholesterol LUVs.

[4] = Calcein dye leakage from mammalian model LUVs; settings: highest (0.5) peptide:lipid ratio
Experimental: as §2

[5] = E. cloacae complex 6780, Table 5
[6] = E. cloacae complex 44095, Table 5

Row | Compound | cytokine production (IL-2, IL-4, IL-5, IFNγ) from PBTLs [1] | MIC (C. albicans) | MIC against C. albicans (n = 5) (C. albicans) | MIC (S. epidermidis 12228) | MIC (B. subtilis ATCC 6633) | MIC (C. tropicalis) | MIC90 [2] | MIC [2] | MIC (B. cereus ATCC 11778) | MIC (E. cloacae complex; [5]) | MIC (E. cloacae complex; [6]) | MIC (C. parapsilosis) | dye release from PE:PG LUVs [3] | dye leakage from PC/Cholesterol LUVs [4]
1 | CC[C@H](C)[C@H](NC(=O)CN)C(=O)NCC(=O)N[C@@H](C)C(=O)N[C@H](C(=O)N[C@@H](CC(C)C)C(=O)NCCCC[C@H](N)C(=O)N[C@H](C(=O)N[C@@H](CC(C)C)C(=O)N[C@H](C(=O)N[C@H](C(=O)NCC(=O)N[C@@H](CC(C)C)C(=O)N1CCC[C@H]1C(=O)N[C@@H](C)C(=O)N[C@@H](CC(C)C)C(=O)N[C@H](C(=O)N[C@@H](CO)C(=O)N[C@@H](Cc1c[nH]c2ccccc12)C(=O)N[C@H](C(=O)NCCCC[C@H](N)C(=O)N[C@@H](CCCNC(=N)N)C(=O)NCCCC[C@H](N)C(=O)N[C@@H](CCCNC(=N)N)C(=O)N[C@@H](CCC(N)=O)C(=O)N[C@@H](CCC(N)=O)C(N)=O)[C@@H](C)CC)[C@@H](C)CC)[C@@H](C)O)[C@@H](C)O)C(C)C)C(C)C [Peptide 4] | no apparent induction of cytokine production | 4 to 8 µg/mL | 4 to 8 µg/mL | 4 µg/mL (≈ 1.41 µM) | 8 µg/mL (≈ 2.81 µM) | 1 to 32 µg/mL | (MIC90 = 8) μg/ml | 4 to 16 µg/mL | 4 µg/mL (≈ 1.41 µM) | 4 µg/mL (≈ 1.41 µM) | 8 µg/mL (≈ 2.81 µM) | 8 to 64 µg/mL |  | 
2 | CC[C@H](C)[C@H](NC(=O)CN)C(=O)NCC(=O)N[C@@H](C)C(=O)N[C@H](C(=O)N[C@@H](CC(C)C)C(=O)NCCCC[C@H](N)C(=O)N[C@H](C(=O)N[C@@H](CC(C)C)C(=O)N[C@H](C(=O)N[C@H](C(=O)NCC(=O)N[C@@H](CC(C)C)C(=O)N1CCC[C@H]1C(=O)N[C@@H](C)C(=O)N[C@@H](CC(C)C)C(=O)N[C@H](C(=O)N[C@@H](CO)C(=O)N[C@@H](Cc1c[nH]c2ccccc12)C(=O)N[C@H](C(=O)N[C@@H](CCCCN)C(=O)N[C@@H](CCCNC(=N)N)C(=O)N[C@@H](CCCCN)C(=O)N[C@@H](CCCNC(=N)N)C(=O)N[C@@H](CCC(N)=O)C(=O)N[C@@H](CCC(N)=O)C(N)=O)[C@@H](C)CC)[C@@H](C)CC)[C@@H](C)O)[C@@H](C)O)C(C)C)C(C)C [Peptide 3] | no apparent induction of cytokine production | 4 to 8 µg/mL | 4 to 8 µg/mL | 4 µg/mL (≈ 1.41 µM) | 8 µg/mL (≈ 2.81 µM) | 1 to 32 µg/mL | (MIC90 = 8) μg/ml | 4 to 8 µg/mL | 4 µg/mL (≈ 1.41 µM) | 4 µg/mL (≈ 1.41 µM) | 8 µg/mL (≈ 2.81 µM) | 16 to 64 µg/mL | ~40% | < 20%
